PubChem BioAssay AID1240 (Sanford-Burnham Center for Chemical Genomics, 2008)
Only a part is listed here, and it is no random draw.

Sequences of proteins named here, by UniProt entry; tags and fusion partners are left off.
UniProt Q9HD36, whole entry: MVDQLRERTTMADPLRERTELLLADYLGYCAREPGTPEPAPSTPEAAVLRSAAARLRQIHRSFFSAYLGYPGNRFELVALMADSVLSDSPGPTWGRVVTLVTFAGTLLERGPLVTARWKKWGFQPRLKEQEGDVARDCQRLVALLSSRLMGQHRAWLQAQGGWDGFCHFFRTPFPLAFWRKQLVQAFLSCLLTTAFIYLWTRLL
UniProt P22736, whole entry partner: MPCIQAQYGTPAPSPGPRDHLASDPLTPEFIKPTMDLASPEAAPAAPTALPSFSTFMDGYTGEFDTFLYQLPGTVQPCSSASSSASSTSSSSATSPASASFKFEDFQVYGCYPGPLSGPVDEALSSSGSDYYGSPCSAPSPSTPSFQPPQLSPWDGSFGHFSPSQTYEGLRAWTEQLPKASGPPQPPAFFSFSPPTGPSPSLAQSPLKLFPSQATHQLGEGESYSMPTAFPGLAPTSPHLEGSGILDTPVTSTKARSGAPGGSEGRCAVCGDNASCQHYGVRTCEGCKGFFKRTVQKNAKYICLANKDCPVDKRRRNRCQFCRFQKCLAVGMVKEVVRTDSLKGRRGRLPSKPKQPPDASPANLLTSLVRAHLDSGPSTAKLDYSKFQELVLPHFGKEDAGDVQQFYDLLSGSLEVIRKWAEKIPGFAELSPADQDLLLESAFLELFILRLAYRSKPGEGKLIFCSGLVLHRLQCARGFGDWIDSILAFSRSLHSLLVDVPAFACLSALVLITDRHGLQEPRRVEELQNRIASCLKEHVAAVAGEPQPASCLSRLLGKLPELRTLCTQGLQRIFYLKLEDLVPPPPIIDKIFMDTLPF

Each compound was assayed against Bcl-2-like protein 10 (Homo sapiens) (UniProt Q9HD36) (assay: Phenotype converters, Bcl-B/TR3 peptide binding displacement, primary biochemical FP (AID 1240;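 further: 0% = Bcl-B with tracer peptide and DMSO and 100% = tracer peptide lacking Bcl-B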)). Details: GST-Bcl-B / FITC-TR3 peptide fluorescence polarization; stronger effect = higher value; compound at 3.75 mg/L.
With `CP(=O)(Oc1ccc(F)cc1)Oc1ccc(F)cc1` the displacement was 19%. With `CCc1ccc(OP(C)(=O)O)cc1` the displacement was -0.5%. `CN(C)CCOC(=O)C(O)(c1ccccc1)c1ccccc1` showed a displacement of -1.5%. `CCOP(C)(=S)SCC(=O)NC(C)C(=O)O` (configuration not stated) was tested, and the displacement was 1%. Work on `CP(=O)(Oc1ccccc1F)Oc1ccccc1F` yielded a displacement of 15.7%. Compound `CP(=O)(Oc1ccccc1)Oc1ccccc1` has a displacement of 11.5%. `CP(=O)(Oc1ccc(Cl)cc1)Oc1ccc(Cl)cc1` gave a displacement of 14.9%.
